Source: paper PMC3137752 (Alcohol (Fayetteville, N.Y.), 2010)

Amino acid sequences for entries named in this document (tags omitted). Residues count along the entry.
UniProt P18508, 39-466: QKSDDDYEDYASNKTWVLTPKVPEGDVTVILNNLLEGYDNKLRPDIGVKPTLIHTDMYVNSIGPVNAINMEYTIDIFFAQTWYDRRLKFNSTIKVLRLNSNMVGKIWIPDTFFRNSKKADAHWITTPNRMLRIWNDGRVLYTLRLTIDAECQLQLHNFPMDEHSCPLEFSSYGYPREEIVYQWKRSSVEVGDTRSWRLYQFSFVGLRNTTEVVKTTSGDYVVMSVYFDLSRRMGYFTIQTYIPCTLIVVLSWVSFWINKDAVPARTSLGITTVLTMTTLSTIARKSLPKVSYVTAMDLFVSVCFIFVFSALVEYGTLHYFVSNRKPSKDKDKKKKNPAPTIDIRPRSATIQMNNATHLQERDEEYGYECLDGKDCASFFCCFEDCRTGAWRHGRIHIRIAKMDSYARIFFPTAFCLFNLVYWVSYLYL
UniProt P62813, 28-455: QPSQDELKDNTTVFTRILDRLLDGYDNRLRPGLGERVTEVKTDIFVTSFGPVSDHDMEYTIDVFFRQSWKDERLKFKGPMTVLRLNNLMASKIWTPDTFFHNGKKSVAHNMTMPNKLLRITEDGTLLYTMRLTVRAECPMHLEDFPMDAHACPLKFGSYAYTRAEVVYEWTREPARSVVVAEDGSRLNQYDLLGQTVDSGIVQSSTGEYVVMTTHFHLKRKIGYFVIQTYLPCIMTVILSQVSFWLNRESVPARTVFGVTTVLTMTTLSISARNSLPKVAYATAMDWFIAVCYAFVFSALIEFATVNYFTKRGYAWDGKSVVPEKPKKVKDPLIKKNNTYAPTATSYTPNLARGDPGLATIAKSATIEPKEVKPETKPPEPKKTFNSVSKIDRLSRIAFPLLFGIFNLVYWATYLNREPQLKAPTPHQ

Molecular target: α1β3γ2 (Rattus norvegicus, UniProt P18508+P62813)
Assay: biochemical

For `CCOC(=O)c1ncn2c1CN(C)C(=O)c1cc(N=[N+]=[N-])ccc1-2` [[^3H]Ro 15-4513], the Kd was 2.9 ± 0.3 nM.
